Here are results for 71 compounds from patent publication US8088763B2 (priority 2004, dated 2012).

Sequences of proteins named here, by UniProt entry; tags and fusion partners are left off.
UniProt P35372, whole entry, looked up: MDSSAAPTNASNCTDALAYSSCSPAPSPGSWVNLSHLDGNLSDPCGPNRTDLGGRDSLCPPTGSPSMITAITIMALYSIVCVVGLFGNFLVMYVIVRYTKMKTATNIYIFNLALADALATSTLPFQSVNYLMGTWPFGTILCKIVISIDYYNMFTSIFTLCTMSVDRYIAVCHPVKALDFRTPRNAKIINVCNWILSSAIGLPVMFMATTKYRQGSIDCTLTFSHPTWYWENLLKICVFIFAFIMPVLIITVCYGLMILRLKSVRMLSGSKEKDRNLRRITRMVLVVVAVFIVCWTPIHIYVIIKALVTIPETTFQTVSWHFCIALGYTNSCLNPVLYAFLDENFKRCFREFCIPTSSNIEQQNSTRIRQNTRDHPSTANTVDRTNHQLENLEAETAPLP

In the assay the target is human μ-opiate receptor (Homo sapiens, UniProt P35372). Put plainly: μ-binding: displacement of [3H]-naloxone, receptor membrane preparation of CHO-K1 cells. The settings on record: 1 μM test compound; 1 nmol/l [3H]-naloxone.
In the case of `CN(C)C1(Cc2ccc(Cl)cc2)CCC(NC(=O)CCC(=O)NCCc2ccccc2F)CC1` (centres unmarked), the “μ-binding, [1 μM], % inhibition” value is given as 67%.

As to `Cc1cccc(CNC(=O)CCC(=O)NC2CCC(Cc3cccc(Cl)c3)(N(C)C)CC2)c1` (centres unmarked), the “μ-binding, [1 μM], % inhibition” value is on record as 69%.

In the case of `CN(C)C1(Cc2cccc(Cl)c2)CCC(NC(=O)CCC(=O)N2CCC(C(=O)c3ccc(Cl)cc3)CC2)CC1` (centres unmarked), the “μ-binding, [1 μM], % inhibition” value was found to be 51%.

`Cc1ccc(CC2(N(C)C)CCC(NC(=O)CCC(=O)NCCc3ccccc3F)CC2)cc1` (centres unmarked): the “μ-binding, [1 μM], % inhibition” value is reported as 90%.

Regarding `Cc1cccc(CC2(N(C)C)CCC(NC(=O)CCC(=O)NC3CCCc4ccccc43)CC2)c1` (centres unmarked), the “μ-binding, [1 μM], % inhibition” value is 58%.

Turning to `CN(C)C1(Cc2cccc(Cl)c2)CCC(NC(=O)CCC(=O)NCc2ccc(F)cc2F)CC1` (centres unmarked), the “μ-binding, [1 μM], % inhibition” value was determined as 58%.

For `Cc1cccc(CC2(N(C)C)CCC(NC(=O)CCC(=O)NCC(C)c3ccc(Cl)cc3)CC2)c1` (centres unmarked), the “μ-binding, [1 μM], % inhibition” value stood at 58%.

Consider `CN(C)C1(Cc2cccc(Cl)c2)CCC(NC(=O)CCC(=O)NCc2ccc(Cl)c(Cl)c2)CC1` (centres unmarked), for which the “μ-binding, [1 μM], % inhibition” value stood at 80%.

In the case of `Cc1ccc(CC2(N(C)C)CCC(NC(=O)CCC(=O)NCCc3ccccc3)CC2)cc1` (centres unmarked), the “μ-binding, [1 μM], % inhibition” value is given as 66%.

For `CN(C)C1(Cc2cccc(Cl)c2)CCC(NC(=O)CCC(=O)NCc2ccc(F)cc2)CC1` (centres unmarked), the “μ-binding, [1 μM], % inhibition” value came out at 64%.

`CN(C)C1(Cc2cccc(Cl)c2)CCC(NC(=O)CCC(=O)NC2CCc3ccccc32)CC1` (centres unmarked): the “μ-binding, [1 μM], % inhibition” value is 50%.

As to `CN(CCCNC(=O)CCC(=O)NC1CCC(Cc2cccc(Cl)c2)(N(C)C)CC1)c1ccccc1` (centres unmarked), the “μ-binding, [1 μM], % inhibition” value came to 54%.

Take “N-[4-dimethylamino-4-(3-methyl-benzyl)- cyclohexyl]-N′-(1-naplithalen-1-yl-ethyl)- succinamide”: the “μ-binding, [1 μM], % inhibition” value was 65%.

`Cc1cccc(CC2(N(C)C)CCC(NC(=O)CCC(=O)NCCc3c[nH]c4ccccc34)CC2)c1` (centres unmarked): the “μ-binding, [1 μM], % inhibition” value is given as 59%.

As to `Cc1cccc(CC2(N(C)C)CCC(NC(=O)CCC(=O)NCCc3ccc(F)cc3)CC2)c1` (centres unmarked), the “μ-binding, [1 μM], % inhibition” value is 68%.

For `CN(C)C1(Cc2cccc(Cl)c2)CCC(NC(=O)CCC(=O)NCc2ccco2)CC1` (centres unmarked), the “μ-binding, [1 μM], % inhibition” value is recorded as 87%.

Turning to `Cc1cccc(CC2(N(C)C)CCC(NC(=O)CCC(=O)NCCc3ccccc3Cl)CC2)c1` (centres unmarked), the “μ-binding, [1 μM], % inhibition” value is on record as 61%.

In the case of `CCOc1ccccc1CCNC(=O)CCC(=O)NC1CCC(Cc2cccc(C)c2)(N(C)C)CC1` (centres unmarked), the “μ-binding, [1 μM], % inhibition” value was determined as 68%.

On to `CN(C)C1(Cc2cccc(Cl)c2)CCC(NC(=O)CCC(=O)N(CCC#N)Cc2ccccc2)CC1` (centres unmarked), for which the “μ-binding, [1 μM], % inhibition” value is 57%.

With `COc1cccc(C(C)NC(=O)CCC(=O)NC2CCC(Cc3cccc(Cl)c3)(N(C)C)CC2)c1` (centres unmarked), the “μ-binding, [1 μM], % inhibition” value was determined as 56%.

Consider “Glutaric acid-(4-benzyl-4-dimethylamino- cyclohexyl)-amide[2-(4-chloro-phenyl)- propyl]-amide”, for which the “μ-binding, [1 μM], % inhibition” value is listed as 68%.

Consider `CN(C)C1(Cc2cccc(Cl)c2)CCC(NC(=O)CCC(=O)NCCc2cccc(Cl)c2)CC1` (centres unmarked), for which the “μ-binding, [1 μM], % inhibition” value was determined as 58%.

Consider `Cc1ccc(CC2(N(C)C)CCC(NC(=O)CCC(=O)NCCc3ccc(Cl)cc3)CC2)cc1` (centres unmarked), for which the “μ-binding, [1 μM], % inhibition” value was determined as 54%.

Regarding `Cc1cccc(CC2(N(C)C)CCC(NC(=O)CCC(=O)NCCc3c(Cl)cccc3Cl)CC2)c1` (centres unmarked), the “μ-binding, [1 μM], % inhibition” value was determined as 74%.

For `Cc1ccc(CC2(N(C)C)CCC(NC(=O)CCC(=O)N(CCC#N)Cc3ccccc3)CC2)cc1` (centres unmarked), the “μ-binding, [1 μM], % inhibition” value is 66%.

As to `Cc1cccc(CC2(N(C)C)CCC(NC(=O)CCC(=O)NCCc3ccc(Cl)cc3Cl)CC2)c1` (centres unmarked), the “μ-binding, [1 μM], % inhibition” value worked out at 50%.

With `CN(Cc1ccccc1)C(=O)CCC(=O)NC1CCC(Cc2cccc(Cl)c2)(N(C)C)CC1` (centres unmarked), the “μ-binding, [1 μM], % inhibition” value is 67%.

With `Cc1cccc(CC2(N(C)C)CCC(NC(=O)CCC(=O)NCCc3cccc(Cl)c3)CC2)c1` (centres unmarked), the “μ-binding, [1 μM], % inhibition” value is 51%.

As to `Cc1ccc(CC2(N(C)C)CCC(NC(=O)CCC(=O)NCCc3ccccc3Cl)CC2)cc1` (centres unmarked), the “μ-binding, [1 μM], % inhibition” value came to 67%.

For the compound `Cc1cccc(CC2(N(C)C)CCC(NC(=O)CCC(=O)NCCc3ccc(Cl)c(Cl)c3)CC2)c1` (centres unmarked), the “μ-binding, [1 μM], % inhibition” value is listed as 77%.

Take `CCC(NC(=O)CCC(=O)NC1CCC(Cc2cccc(Cl)c2)(N(C)C)CC1)c1ccccc1` (centres unmarked): the “μ-binding, [1 μM], % inhibition” value is on record as 58%.

`Cc1cccc(CC2(N(C)C)CCC(NC(=O)CCC(=O)NCc3ccccc3F)CC2)c1` (centres unmarked): the “μ-binding, [1 μM], % inhibition” value turned out to be 50%.

`CN(C)C1(Cc2cccc(Cl)c2)CCC(NC(=O)CCC(=O)NC2CCCc3ccccc32)CC1` (centres unmarked): the “μ-binding, [1 μM], % inhibition” value is 52%.

Regarding `CN(C)C1(Cc2cccc(Cl)c2)CCC(NC(=O)CCC(=O)N(Cc2ccco2)Cc2ccccc2F)CC1` (centres unmarked), the “μ-binding, [1 μM], % inhibition” value is recorded as 54%.

With `CC(CCc1ccccc1)NC(=O)CCC(=O)NC1CCC(Cc2cccc(Cl)c2)(N(C)C)CC1` (centres unmarked), the “μ-binding, [1 μM], % inhibition” value turned out to be 62%.

As to `CN(C)C1(Cc2cccc(Cl)c2)CCC(NC(=O)CCC(=O)NCc2cc(F)cc(C(F)(F)F)c2)CC1` (centres unmarked), the “μ-binding, [1 μM], % inhibition” value came out at 57%.

Turning to `Cc1cccc(CC2(N(C)C)CCC(NC(=O)CCC(=O)N(Cc3ccco3)Cc3ccccc3F)CC2)c1` (centres unmarked), the “μ-binding, [1 μM], % inhibition” value was found to be 62%.

On to `CC(NC(=O)CCC(=O)NC1CCC(Cc2cccc(Cl)c2)(N(C)C)CC1)c1ccc(F)cc1` (centres unmarked), for which the “μ-binding, [1 μM], % inhibition” value is 59%.

For `CCOc1ccccc1CCNC(=O)CCC(=O)NC1CCC(Cc2cccc(Cl)c2)(N(C)C)CC1` (centres unmarked), the “μ-binding, [1 μM], % inhibition” value was 50%.

Regarding `Cc1ccc(CC2(N(C)C)CCC(NC(=O)CCC(=O)NCCc3ccc(F)cc3)CC2)cc1` (centres unmarked), the “μ-binding, [1 μM], % inhibition” value stood at 51%.

In the case of `Cc1cccc(CC2(N(C)C)CCC(NC(=O)CCC(=O)NCc3ccccc3C(F)(F)F)CC2)c1` (centres unmarked), the “μ-binding, [1 μM], % inhibition” value turned out to be 53%.

On to “Glutaric acid-(4-benzyl-4-dimethylamino- cyclohexyl)-amide[2-(3-chloro-phenyl)- ethyl]-amide”, for which the “μ-binding, [1 μM], % inhibition” value is reported as 84%.

Turning to `CN(C)C1(Cc2cccc(Cl)c2)CCC(NC(=O)CCC(=O)NCc2ccc(Br)cc2F)CC1` (centres unmarked), the “μ-binding, [1 μM], % inhibition” value is listed as 66%.

As for `CN(C)C1(Cc2cccc(Cl)c2)CCC(NC(=O)CCC(=O)NCCc2cccc(C(F)(F)F)c2)CC1` (centres unmarked), the “μ-binding, [1 μM], % inhibition” value came out at 56%.

Consider `CN(C)C1(Cc2cccc(Cl)c2)CCC(NC(=O)CCC(=O)NCc2ccc(F)c(Cl)c2)CC1` (centres unmarked), for which the “μ-binding, [1 μM], % inhibition” value was 55%.

With `Cc1cccc(CC2(N(C)C)CCC(NC(=O)CCC(=O)NC3CCc4ccccc43)CC2)c1` (centres unmarked), the “μ-binding, [1 μM], % inhibition” value came out at 64%.

On to `Cc1cccc(CC2(N(C)C)CCC(NC(=O)CCC(=O)N(CCO)Cc3ccccc3)CC2)c1` (centres unmarked), for which the “μ-binding, [1 μM], % inhibition” value was determined as 50%.

As for `CN(C)C1(Cc2ccc(Cl)cc2)CCC(NC(=O)CCC(=O)NC2CCc3ccccc32)CC1` (centres unmarked), the “μ-binding, [1 μM], % inhibition” value came out at 51%.

Take `CN(C)C1(Cc2cccc(Cl)c2)CCC(NC(=O)CCC(=O)NCc2ccccc2Cl)CC1` (centres unmarked): the “μ-binding, [1 μM], % inhibition” value came out at 56%.

On to `CN(C)C1(Cc2cccc(Cl)c2)CCC(NC(=O)CCC(=O)NCCc2ccccc2Cl)CC1` (centres unmarked), for which the “μ-binding, [1 μM], % inhibition” value is reported as 80%.

In the case of `Cc1ccc(C(C)NC(=O)CCC(=O)NC2CCC(Cc3cccc(Cl)c3)(N(C)C)CC2)cc1` (centres unmarked), the “μ-binding, [1 μM], % inhibition” value turned out to be 50%.

Consider `CN(C)C1(Cc2ccccc2)CCC(NC(=O)CCCC(=O)NCCc2ccccc2)CC1` (centres unmarked), for which the “μ-binding, [1 μM], % inhibition” value was 72%.

Regarding `Cc1ccc(CC2(N(C)C)CCC(NC(=O)CCC(=O)NCCSCc3c(Cl)cccc3Cl)CC2)cc1` (centres unmarked), the “μ-binding, [1 μM], % inhibition” value is listed as 67%.

For the compound `CN(C)C1(Cc2cccc(Cl)c2)CCC(NC(=O)CCC(=O)NCCc2ccc(Cl)cc2)CC1` (centres unmarked), the “μ-binding, [1 μM], % inhibition” value is recorded as 62%.

For “Glutaric acid-(4-benzyl-4-dimethylamino- cyclohexyl)-amide[2-(2-fluoro-phenyl)- ethyl]-amide”, the “μ-binding, [1 μM], % inhibition” value came to 68%.

On to `CN(C)C1(Cc2cccc(Cl)c2)CCC(NC(=O)CCC(=O)NCc2ccc(F)c(C(F)(F)F)c2)CC1` (centres unmarked), for which the “μ-binding, [1 μM], % inhibition” value is recorded as 54%.

As for `CN(C)C1(Cc2cccc(Cl)c2)CCC(NC(=O)CCC(=O)NCCc2ccc(Cl)cc2Cl)CC1` (centres unmarked), the “μ-binding, [1 μM], % inhibition” value was 52%.

For `Cc1cccc(CC2(N(C)C)CCC(NC(=O)CCC(=O)NCc3cccc(C)c3C)CC2)c1` (centres unmarked), the “μ-binding, [1 μM], % inhibition” value is recorded as 69%.

On to `CN(C)C1(Cc2cccc(Cl)c2)CCC(NC(=O)CCC(=O)NC2Cc3ccccc3C2)CC1` (centres unmarked), for which the “μ-binding, [1 μM], % inhibition” value stood at 64%.

As to `CN(C)C1(Cc2ccccc2)CCC(NC(=O)CCCC(=O)NC2CCCc3ccccc32)CC1` (centres unmarked), the “μ-binding, [1 μM], % inhibition” value stood at 55%.

`COc1ccc(OC)c(CN(Cc2ccco2)C(=O)CCC(=O)NC2CCC(Cc3cccc(Cl)c3)(N(C)C)CC2)c1` (centres unmarked): the “μ-binding, [1 μM], % inhibition” value is reported as 60%.

With `Cc1cccc(CC2(N(C)C)CCC(NC(=O)CCC(=O)N(C)Cc3ccccc3)CC2)c1` (centres unmarked), the “μ-binding, [1 μM], % inhibition” value is given as 59%.

On to “Glutaric acid-(4-benzyl-4-dimethylamino- cyclohexyl)-amide[2-(2-ethoxy-phenyl)- ethyl]-amide”, for which the “μ-binding, [1 μM], % inhibition” value is 90%.

As to `CN(C)C1(Cc2cccc(Cl)c2)CCC(NC(=O)CCC(=O)NCCc2cccs2)CC1` (centres unmarked), the “μ-binding, [1 μM], % inhibition” value stood at 60%.

On to `Cc1cccc(CC2(N(C)C)CCC(NC(=O)CCC(=O)N3CCC(C(=O)c4ccc(Cl)cc4)CC3)CC2)c1` (centres unmarked), for which the “μ-binding, [1 μM], % inhibition” value came out at 56%.

On to “N-[4-(3-chloro-benzyl)-4-dimethylamino- cyclohexyl]-N′-(1-naplithalen-1-yl-ethyl)- succinamide”, for which the “μ-binding, [1 μM], % inhibition” value was 54%.

Regarding `CN(C)C1(Cc2cccc(Cl)c2)CCC(NC(=O)CCC(=O)NCc2ccc(Cl)cc2)CC1` (centres unmarked), the “μ-binding, [1 μM], % inhibition” value amounted to 56%.

For the compound `Cc1cccc(CC2(N(C)C)CCC(NC(=O)CCC(=O)NCCc3ccccc3)CC2)c1` (centres unmarked), the “μ-binding, [1 μM], % inhibition” value stood at 60%.

For the compound `CN(C)C1(Cc2cccc(Cl)c2)CCC(NC(=O)CCC(=O)NCCc2ccccc2F)CC1` (centres unmarked), the “μ-binding, [1 μM], % inhibition” value came out at 59%.

As for `CCN(Cc1ccccc1)C(=O)CCC(=O)NC1CCC(Cc2cccc(Cl)c2)(N(C)C)CC1` (centres unmarked), the “μ-binding, [1 μM], % inhibition” value amounted to 61%.

Take `CN(C)C1(Cc2cccc(Cl)c2)CCC(NC(=O)CCC(=O)NCCc2ccc(Oc3ccccc3)cc2)CC1` (centres unmarked): the “μ-binding, [1 μM], % inhibition” value came out at 55%.
